Source: patent US8735391B2, “Synthesis of functionalized octahydro-isoquinolin-1-one-8-carboxamides, octahydro-isoquinolin-1-one-8-carboxylic esters and analogs, and therapeutic methods” (University of Kansas, priority 2008, dated 2014)

Sequences of proteins named here, by UniProt entry; tags and fusion partners are left off.
UniProt P41145, whole entry: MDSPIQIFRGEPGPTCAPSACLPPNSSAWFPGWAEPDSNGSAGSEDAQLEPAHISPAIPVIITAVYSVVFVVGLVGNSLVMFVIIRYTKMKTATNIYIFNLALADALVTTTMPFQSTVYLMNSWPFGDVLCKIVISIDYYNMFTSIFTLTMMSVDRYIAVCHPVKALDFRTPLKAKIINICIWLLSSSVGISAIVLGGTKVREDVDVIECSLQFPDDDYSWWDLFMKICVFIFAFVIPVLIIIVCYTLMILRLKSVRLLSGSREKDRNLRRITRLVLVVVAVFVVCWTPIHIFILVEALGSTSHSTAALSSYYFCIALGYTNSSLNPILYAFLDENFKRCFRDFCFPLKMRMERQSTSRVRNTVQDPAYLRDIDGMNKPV

Tests used:
[1] = target: T1, KOR (Homo sapiens, UniProt P41145); test: Opioid secondary binding, KOR (Tables 4, 5, 8, 9); details: read-out: KOR, Ki; Opioid secondary binding activity for Formula 10 analogs
[2] = target: T1, KOR; test: [35S]GTPγS binding functional agonist assay on membranes of CHO cells expressing hKOR (reference agonist U69593); type: biochemical; details: test compound at 10 micromolar; N=4; reference agonist = 100%; CHO-cell line expressing hKOR

Structure (SMILES) | Ki [1] [nM] | KOR agonist (average percent efficacy relative to cognate agonist) [2] [%]
CCCCN1CCC2C=CCC(C(=O)Nc3nccs3)C2C1=O (stereo not shown) | 355 | 93.8
O=C(NC1CCCCC1)[C@H]1CC=C[C@H]2CCN(Cc3ccccc3)C(=O)[C@@H]12 | 213 | 
O=C(Nc1nccs1)[C@H]1CC=C[C@H]2CCN(C3CCCCC3)C(=O)[C@@H]12 (relative stereo) | 160 | 129.2
O=C(Nc1nccs1)[C@H]1CC=C[C@H]2CCN(Cc3ccccc3)C(=O)[C@@H]12 (relative stereo) | 200 | 121.5
